Only a part of the results on these compounds is given; other tests are left out.
Assay: Reduction of coumarin fluorescence by transition metal salts and complexes
Details: ex. 395 nm, em. 460 nm; K-MOPS pH 7.15; 10 μM fluorophore

## potassium ferricyanide (III)
  concentration at which coumarin fluorescence can be reduced: low millimolar range

— US6200762A, “Photon reducing agents and compositions for fluorescence assays” (Aurora Biosciences Corporation, priority 1998, dated 2001)
